AlphaSeq binding of Ab-14 light chain variants to a spike HR2 peptide

Reference: Engelhart et al. 2022, doi:10.1038/s41597-022-01779-4. File: FLAb, binding data.

Target peptide (SARS-CoV-2 spike, HR2 region): PDVDLGDISGINAS

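Variants in AAYL50 differ from the parent at up to three CDR positions; double and triple changes were sampled at random. AlphaSeq pools MATa yeast showing the antibodies with MATalpha yeast showing the peptide. Pairs that bind mate more often; barcode pairs of the diploids are counted by sequencing. Each replicate has its own calibration line, from reference interactions of the BCL2 family. There are three technical replicates.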

Parent: Ab-14, a human scFv built as VH, three GGGGS repeats, VL. Only the CDRs of the light chain vary.
VH: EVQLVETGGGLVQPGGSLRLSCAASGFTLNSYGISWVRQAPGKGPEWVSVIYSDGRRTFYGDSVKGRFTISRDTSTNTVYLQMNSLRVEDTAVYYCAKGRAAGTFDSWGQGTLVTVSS
VL: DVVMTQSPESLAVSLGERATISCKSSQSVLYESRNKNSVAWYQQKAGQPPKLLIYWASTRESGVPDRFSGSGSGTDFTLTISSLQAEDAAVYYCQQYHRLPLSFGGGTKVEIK

Substitutions are numbered in sequence along the VL above, starting at 1 (not Kabat).
The Kd shown is the geometric mean over detected replicates; a lower Kd is a better binder.
A pair that was not seen in any replicate is written "no signal"; this usually means weak binding, but a binder can also be missed.
For reference, the parent read 4.4 nM as the reference entry and 48 nM as a member of this library.
Empty control strains, which show no peptide, gave a signal in 18% of pairings with library AAYL50; the median was 15 µM and 95% of these signals were weaker than 970 nM. No background was subtracted.

{"changes": "S33C+W56A", "apparent Kd": "no signal", "replicates with signal": "0/3"}
{"changes": "K36E+R99M", "apparent Kd": "11 nM", "replicates with signal": "3/3"}
{"changes": "V29M+S58F", "apparent Kd": "1.7 µM", "replicates with signal": "1/3"}
{"changes": "E32D+W56P+T59P", "apparent Kd": "no signal", "replicates with signal": "0/3"}
{"changes": "S26F+K36R+S62H", "apparent Kd": "no signal", "replicates with signal": "0/3"}
{"changes": "Q27I+Y31N+S38G", "apparent Kd": "19 nM", "replicates with signal": "3/3"}
{"changes": "Q96P+P101E+S103N", "apparent Kd": "94 µM", "replicates with signal": "1/3"}
{"changes": "Q27R+L30K+S103Q", "apparent Kd": "62 nM", "replicates with signal": "3/3"}
{"changes": "A40R+A57N+S103F", "apparent Kd": "no signal", "replicates with signal": "0/3"}
{"changes": "S25I+N35F+W56L", "apparent Kd": "no signal", "replicates with signal": "0/3"}
{"changes": "T59S+R60P+L102Q", "apparent Kd": "670 nM", "replicates with signal": "1/3"}
{"changes": "S33G+A40R+R60M", "apparent Kd": "6.8 µM", "replicates with signal": "2/3"}
{"changes": "N35V+V39E+L100T", "apparent Kd": "18 µM", "replicates with signal": "1/3"}
{"changes": "S28D+K36F+S62A", "apparent Kd": "5.5 nM", "replicates with signal": "3/3"}
{"changes": "A40K+Q95D+R99P", "apparent Kd": "no signal", "replicates with signal": "0/3"}
{"changes": "S25A+A40P+W56R", "apparent Kd": "5.3 µM", "replicates with signal": "2/3"}
{"changes": "K24C+H98Y+L100D", "apparent Kd": "67 µM", "replicates with signal": "2/3"}
{"changes": "S33W+L100G", "apparent Kd": "2.7 µM", "replicates with signal": "1/3"}
{"changes": "K24Y+K36C+Q95A", "apparent Kd": "2.1 µM", "replicates with signal": "2/3"}
{"changes": "V29L+L100V", "apparent Kd": "8.8 nM", "replicates with signal": "3/3"}
{"changes": "E32C+N35K+L100K", "apparent Kd": "590 µM", "replicates with signal": "1/3"}
{"changes": "K24V+S62M+H98V", "apparent Kd": "170 nM", "replicates with signal": "3/3"}
{"changes": "N37L+S58K+L100Q", "apparent Kd": "3.2 µM", "replicates with signal": "2/3"}
{"changes": "L30F+W56I+S58I", "apparent Kd": "no signal", "replicates with signal": "0/3"}
{"changes": "Y31Q+R34N+L100I", "apparent Kd": "72 nM", "replicates with signal": "3/3"}
{"changes": "S26V+S28M+S58G", "apparent Kd": "no signal", "replicates with signal": "0/3"}
{"changes": "Q27W+K36N+S103W", "apparent Kd": "660 nM", "replicates with signal": "2/3"}
{"changes": "S28E+Q96N+P101G", "apparent Kd": "no signal", "replicates with signal": "0/3"}

Picked from the list: the 4 lowest averages where every replicate gave a value.

{"changes": "S28D+K36F+S62A", "apparent Kd": "5.5 nM", "replicates with signal": "3/3"}
{"changes": "V29L+L100V", "apparent Kd": "8.8 nM", "replicates with signal": "3/3"}
{"changes": "K36E+R99M", "apparent Kd": "11 nM", "replicates with signal": "3/3"}
{"changes": "Q27I+Y31N+S38G", "apparent Kd": "19 nM", "replicates with signal": "3/3"}